In publication PMC3923439, “Anti-inflammatory properties of a novel peptide interleukin 1 receptor antagonist” (Journal of Neuroinflammation, 2014) one finds Kd, koff and kon data, which are given here for one molecule.

The assay deals with T1, recombinant ectodomain of IL-1 receptor type I (IL-1RI) (UniProt P14778 18-336).
T1 construct: interleukin 1 receptor type I, ectodomain; No catalogue number, limits or tag are printed for the bought protein; also called sIL-1RI; soluble IL-1 receptor type I; source: bought: R&D Systems
T1 sequence (looked up): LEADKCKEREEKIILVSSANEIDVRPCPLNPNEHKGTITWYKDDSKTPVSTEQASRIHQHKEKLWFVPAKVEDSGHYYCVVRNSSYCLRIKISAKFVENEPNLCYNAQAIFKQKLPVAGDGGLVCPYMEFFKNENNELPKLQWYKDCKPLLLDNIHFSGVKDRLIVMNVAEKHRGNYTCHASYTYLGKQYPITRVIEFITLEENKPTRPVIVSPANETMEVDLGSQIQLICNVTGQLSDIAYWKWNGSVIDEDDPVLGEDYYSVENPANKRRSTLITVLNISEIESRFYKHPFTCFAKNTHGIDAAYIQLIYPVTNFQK
The assay is described as follows: SPR; Biacore 2000; about 2,500 to 3,000 RU of Ilantide-t, IL-1β or IL-1Ra immobilised on a CM4 sensor chip; IL-1RI ectodomain (or NCAM Ig1-Ig2 as negative control) injected; 25°C, 10 mM sodium phosphate pH 7.4, 150 mM NaCl; apparent Kd. As to conditions: both partners purified.

B1: interleukin 1 receptor antagonist (IL-1Ra), recombinant (ligand, UniProt P18510 26-177, looked up)
chain: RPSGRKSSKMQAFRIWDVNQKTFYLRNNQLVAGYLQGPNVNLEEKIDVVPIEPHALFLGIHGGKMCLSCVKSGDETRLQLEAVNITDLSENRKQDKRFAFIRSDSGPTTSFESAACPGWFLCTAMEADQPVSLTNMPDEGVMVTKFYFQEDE
notes: interleukin 1 receptor antagonist, recombinant; Not the drug anakinra, which was used only in cell and animal tests; also called IL-Ra; source: bought: R&D Systems
Consider B1, for which the Kd amounted to 48 nM, the off-rate (koff) turned out to be 0.00362 s⁻¹ and the kon was found to be 147000 M⁻¹ s⁻¹.

One may read the koff as the rate constant with which the complex falls apart. By kon is commonly meant a measure of how fast the partners come together.
